The text below walks through data of article PMC5741663, “Antimicrobial peptide capsids of de novo design” (Nature Communications, 2017).

The assay concerns K. pneumoniae (NCTC 5055). The format is cell-based. Particulars: NCTC 5055, 24 h. As to the method:
MICs were determined by broth microdilution on different bacteria according to the Clinical and Laboratory Standards Institute. Typically, 100 μL of 0.5–1 × 10^6 CFU mL^–1 of each bacterium in Mueller Hinton media broth (Oxoid) were incubated in 96-well microtitre plates with 100 μL of serial two-fold dilutions of the peptides (from 100 to 0 μM) at 37 °C on a 3D orbital shaker. The absorbance was measured after peptide addition at 600 nm using a Victor 2 plate reader (Perkin-Elmer). MICs were defined as the lowest peptide concentration after 24 h at 37 °C.

`CCCCCCCCCC(=O)N[C@@H](Cc1c[nH]c2ccccc12)C(=O)N[C@H](CC(N)=O)C(=O)N[C@@H](CC(=O)O)C(=O)N[C@@H]1C(=O)NCC(=O)N[C@@H](CCCN)C(=O)N[C@@H](CC(=O)O)C(=O)N[C@H](C)C(=O)N[C@@H](CC(=O)O)C(=O)NCC(=O)N[C@H](CO)C(=O)N[C@@H]([C@H](C)CC(=O)O)C(=O)N[C@@H](CC(=O)c2ccccc2N)C(=O)O[C@@H]1C` [Daptomycin]: the Minimum inhibitory concentrations is >50 µM.
